This is a selection; strong and weak results do not stand in their true shares. Calls of active or inactive are those of the source.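 Rule for the calls: active = activation above a cutoff set at the mean activation of all tested compounds plus 3 SD (cut at about 54% in these data); inactive = the rest, inconclusive results apart.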

By UniProt entry, the sequences of proteins in these tests, tags left out.
UniProt P21453, whole entry: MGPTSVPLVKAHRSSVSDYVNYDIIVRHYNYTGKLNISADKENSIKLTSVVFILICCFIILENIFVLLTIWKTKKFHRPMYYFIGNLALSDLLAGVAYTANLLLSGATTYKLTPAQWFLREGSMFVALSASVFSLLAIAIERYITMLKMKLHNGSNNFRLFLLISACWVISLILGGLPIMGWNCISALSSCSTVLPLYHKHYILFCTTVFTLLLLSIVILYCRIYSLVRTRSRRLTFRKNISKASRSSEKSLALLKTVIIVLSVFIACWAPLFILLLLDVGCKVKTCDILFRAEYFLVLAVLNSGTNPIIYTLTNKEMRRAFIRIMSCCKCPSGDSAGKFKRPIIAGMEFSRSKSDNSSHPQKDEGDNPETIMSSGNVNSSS

The test concerns the target Sphingosine 1-phosphate receptor 1 (Homo sapiens) (UniProt P21453). Nature of the test: activation or potentiation of human S1P1 signaling – cell-based, primary and confirmation screens, CRE-bla reporter, primary screen (AID 449).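 Note: forskolin at 4 µM as EC80 and the EC20 agonist is SEW2871; 100% = SEW2871 at its EC100 plus forskolin at EC80.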 Particulars: S1P1 CRE-bla cells, forskolin, beta-lactamase FRET, potentiator mode; at 9.5 µM; active compounds read high; 100% = saturating reference agonist, 0% = basal; S1P1 agonist co-added at EC20, 2 nM.
On to `N#CC1(Nc2ccccc2)CCN(CCc2ccccc2)CC1`, for which the activation was inactive: -15.8%.
Under `COc1ccc(NC2CCN(CCc3ccccc3)CC2)c(OC)c1` stands inactive: -18.8%; under `O=C(OC1CN2CCC1CC2)C1c2ccccc2Oc2ccccc21` (configuration not stated), inactive: -11.6%.
On to `CCOc1ncccc1C(=O)NCC1(N2CCOCC2)CCCCC1`, for which the activation was inactive: -13.6%.
Regarding `CCC(CO)(C(=O)OC1CN2CCC1CC2)c1ccccc1` (configuration not stated), the activation is inactive: -15.9%.
To `Fc1ccccc1NC1CCN(Cc2ccccc2)CC1` belongs inactive: -15.2%.
To `N/C(=N\O)c1c(N)no[n+]1[O-]` belongs inactive: -4.2%.

Source of the values: PubChem BioAssay AID449 (The Scripps Research Institute Molecular Screening Center, 2006).
